Among the data in ChEMBL document CHEMBL1132509, “Aminoisoquinolines: design and synthesis of an orally active benzamidine isostere for the inhibition of factor XA” (Bioorg Med Chem Lett, 1999) are Ratio values, retold here.

Test [1] can be described thus: Ratio of inhibitory activity against […] to that of factor Xa.
Test [2] is described as follows: Ratio inhibitory activity against coagulation factor IIa to that of factor Xa.
Test [3] can be described thus: Ratio of inhibitory activity against Plasmin to that of factor Xa.
A short description of test [4]: Ratio of inhibitory activity against plasminogen activator to that of factor Xa.
A short description of test [5]: Ratio of inhibitory activity against activated protein C to that of factor Xa.

Turning to `Nc1cc2ccnc(N)c2cc1CN1CC[C@H](NS(=O)(=O)c2cc3ncccc3s2)C1=O`, the Ratio was over 480 in test [1]; over 660 in test [2]; over 1200 in test [3]; over 1450 in test [4]; over 3080 in test [5].
